The list shows a part of the results, in another mix than the full data. Potency and affinity values are given separately. Inconclusive results are not listed. Activity calls are given as the source filed them.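 The calls were made as follows: active = pathway reporter half-maximal dose under half the control reporter's, or control reporter unaffected while pathway reporter is inhibited; inconclusive = either signal flat at 30 to 70% inhibition or poorly fitted; inactive = the rest.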
Assay: LMP1 TES1 pathway selectivity over dsRED control – imaging, HEK293T, dual-color eGFP/dsRED, cherry-picks, selectivity assay for LMP1 NF-kB inhibitor project, dose response (AID 588398);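 also: 0% = median of neutral control wells and -100% = median of MG132 positive control wells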
Conditions: HEK293T Tet-On dsRED counter-screen channel, 48 h; at 19.5 µM (top of the series)

SMILES	activity change, negative = inhibition
COc1ccc(/C=C/c2nc3ccccc3n2C)cc1	inactive: 3.42%
C[C@@H](OC(=O)c1[nH]cnc1C(=O)N1CCc2ccccc2C1)c1ccccc1	inactive: 29.4%
COc1ccc(Cn2c(SCc3cc(C)ccc3C)nc3cc(OC)c(OC)cc3c2=N)cc1	inactive: -12.6%
COc1cc(Cl)cc(C(c2c(C(=O)O)[nH]c3ccccc23)c2c(C(=O)O)[nH]c3ccccc23)c1O	inactive: 14.5%
COC(=O)[C@H](C)[C@H]1C[C@]1(C)[C@H](NC(=O)OCc1ccccc1)c1ccccc1	inactive: -0.636%
O=C(COc1ccc2ccccc2c1)NCCNC(=O)COc1ccc2ccccc2c1	inactive: 11.9%
COc1ccc2oc(C(=O)NCCc3ccccc3)c(C)c2c1	inactive: 6.72%
CCN1CCN(Cc2ccc(NC(=O)c3ccc(C)c(NC(=O)c4c[nH]c5cc(C(F)(F)F)ccc5c4=O)c3)cc2C(F)(F)F)CC1	inactive: 11.4%
Cc1nc(N)nc(N)c1/C=C/C(C)(C)c1ccc(Cl)cc1	inactive: 69.2%
O=C(O)c1ccccc1Nc1cccc(OCc2ccc3ccccc3n2)c1	inactive: 21.5%
